Data: patent US8975247B2, “Methods and compositions of treating a flaviviridae family viral infection” (priority 2009, dated 2015)

Protein sequences, listed by entry. Tags and fused reporters are not part of them.
UniProt Q12809, whole entry: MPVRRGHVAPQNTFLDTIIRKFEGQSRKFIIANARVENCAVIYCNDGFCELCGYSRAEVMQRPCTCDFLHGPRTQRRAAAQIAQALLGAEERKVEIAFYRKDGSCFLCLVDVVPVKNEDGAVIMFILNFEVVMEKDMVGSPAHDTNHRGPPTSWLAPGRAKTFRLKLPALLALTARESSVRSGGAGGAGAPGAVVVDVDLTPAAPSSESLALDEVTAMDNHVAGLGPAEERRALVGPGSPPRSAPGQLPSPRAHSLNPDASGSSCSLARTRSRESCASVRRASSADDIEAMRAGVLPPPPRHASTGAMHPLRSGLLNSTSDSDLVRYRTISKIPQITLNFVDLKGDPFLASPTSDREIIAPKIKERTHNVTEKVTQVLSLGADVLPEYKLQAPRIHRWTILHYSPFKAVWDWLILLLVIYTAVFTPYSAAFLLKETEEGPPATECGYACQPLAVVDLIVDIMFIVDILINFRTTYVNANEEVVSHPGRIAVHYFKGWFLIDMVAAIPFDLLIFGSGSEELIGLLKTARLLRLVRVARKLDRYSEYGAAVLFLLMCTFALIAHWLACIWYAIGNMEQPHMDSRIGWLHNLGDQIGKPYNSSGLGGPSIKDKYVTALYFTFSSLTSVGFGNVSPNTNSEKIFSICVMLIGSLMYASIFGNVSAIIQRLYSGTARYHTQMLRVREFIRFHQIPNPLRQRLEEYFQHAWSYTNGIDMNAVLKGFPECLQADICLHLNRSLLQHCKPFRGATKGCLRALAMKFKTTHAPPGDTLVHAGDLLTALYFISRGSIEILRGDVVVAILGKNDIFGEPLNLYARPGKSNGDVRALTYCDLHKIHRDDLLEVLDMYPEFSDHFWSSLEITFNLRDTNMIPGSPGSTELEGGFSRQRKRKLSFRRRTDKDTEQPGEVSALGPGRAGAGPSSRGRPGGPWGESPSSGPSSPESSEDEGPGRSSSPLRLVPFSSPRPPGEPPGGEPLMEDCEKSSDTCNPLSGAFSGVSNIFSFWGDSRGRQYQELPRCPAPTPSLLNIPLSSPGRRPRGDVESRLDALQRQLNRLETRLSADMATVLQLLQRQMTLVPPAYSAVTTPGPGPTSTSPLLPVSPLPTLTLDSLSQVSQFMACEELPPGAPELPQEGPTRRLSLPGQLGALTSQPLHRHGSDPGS

Target: hERG channel (Homo sapiens (Human), UniProt Q12809)
Experiment: hERG channel assay (whole cell patch clamp)
Type: cell-based
Details: read-out: hERG IC50; CHO cell line expressing hERG

F[C@@H]1CCN(Cc2nc3ccccc3n2Cc2ccc(Cl)cc2)C1
IC50: 10 µM
